By UniProt entry, the sequences of proteins in these tests, tags left out.
UniProt P16390, whole entry: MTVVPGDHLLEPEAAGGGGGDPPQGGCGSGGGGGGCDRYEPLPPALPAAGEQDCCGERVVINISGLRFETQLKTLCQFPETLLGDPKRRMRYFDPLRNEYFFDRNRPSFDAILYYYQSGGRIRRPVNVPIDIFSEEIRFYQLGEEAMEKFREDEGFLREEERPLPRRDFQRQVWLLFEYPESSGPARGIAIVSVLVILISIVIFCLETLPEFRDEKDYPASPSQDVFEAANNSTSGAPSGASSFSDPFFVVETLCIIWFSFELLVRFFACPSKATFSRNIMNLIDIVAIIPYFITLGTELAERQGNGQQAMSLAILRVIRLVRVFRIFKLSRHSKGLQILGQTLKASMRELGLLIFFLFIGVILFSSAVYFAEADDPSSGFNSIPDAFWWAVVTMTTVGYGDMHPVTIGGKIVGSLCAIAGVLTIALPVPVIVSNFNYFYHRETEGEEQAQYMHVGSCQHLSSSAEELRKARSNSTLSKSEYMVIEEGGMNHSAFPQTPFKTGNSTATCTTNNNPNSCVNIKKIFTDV
UniProt Q704Y3, whole entry: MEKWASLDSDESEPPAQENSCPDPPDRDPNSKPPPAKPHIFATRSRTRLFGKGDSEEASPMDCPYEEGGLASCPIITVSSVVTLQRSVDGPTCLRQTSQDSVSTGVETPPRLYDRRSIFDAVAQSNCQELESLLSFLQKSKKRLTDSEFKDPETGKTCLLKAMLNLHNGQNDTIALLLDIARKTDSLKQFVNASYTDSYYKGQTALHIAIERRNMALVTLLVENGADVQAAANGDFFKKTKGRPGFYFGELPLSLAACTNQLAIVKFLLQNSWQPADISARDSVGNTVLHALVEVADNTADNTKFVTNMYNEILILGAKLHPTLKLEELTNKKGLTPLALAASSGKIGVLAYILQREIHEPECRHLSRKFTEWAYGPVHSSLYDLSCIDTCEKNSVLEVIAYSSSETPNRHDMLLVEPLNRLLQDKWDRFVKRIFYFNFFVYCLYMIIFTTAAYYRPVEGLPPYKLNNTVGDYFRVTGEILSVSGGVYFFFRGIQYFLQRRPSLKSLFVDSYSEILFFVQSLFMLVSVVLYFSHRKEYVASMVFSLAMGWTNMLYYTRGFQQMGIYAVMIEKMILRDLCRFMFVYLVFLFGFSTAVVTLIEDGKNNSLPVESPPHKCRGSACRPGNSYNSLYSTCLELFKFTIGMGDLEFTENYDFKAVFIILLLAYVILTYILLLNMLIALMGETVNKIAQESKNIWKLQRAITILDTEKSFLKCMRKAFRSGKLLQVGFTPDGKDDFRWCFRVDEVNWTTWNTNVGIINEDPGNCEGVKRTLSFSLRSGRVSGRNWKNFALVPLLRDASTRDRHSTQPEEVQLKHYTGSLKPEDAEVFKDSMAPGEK

According to PMC4591660 (Toxins, 2015):

Tests used:
rat Kv1.1 = conditions: ref [9]; cited from earlier work
mKv1.3 [1] = biological target: T1, mKv1.3 (Mus musculus, UniProt P16390); test: cell-based
mKv1.3 [2] = biological target: T1, mKv1.3; conditions: 10 µM, 20 °C
[3] = test system: DRG neurons of TRPV1 KO mice; format: cell-based, mouse; conditions: BmP01 300 µM, capsaicin 10 µM; * p < 0.01, n = 10
mTRPV1 = biological target: T2, mTRPV1 (Mus musculus, UniProt Q704Y3); format: cell-based; conditions: 20 °C
T2 construct: expressed in transfected cells; host or cells: HEK293T

rat hippocampal neurons = conditions: ref [36]; cited from earlier work
human Kv1.3 = conditions: ref [9]; cited from earlier work
TRPV1 KO mice = format: in vivo; conditions: 500 µM, 10 μL intraplantar, left hind paw; 30 min recording; n = 10; vs saline
WT mice = format: in vivo, C57BL/6J; conditions: 10 μL intraplantar, left hind paw, 30 min recording, n = 10
mKv1.1 = conditions: 1 mM; 300-ms depolarizing potential of 0 mV from holding potential of −80 mV; 20 °C; pH 7.3

CC(C)[C@@H]1NC(=O)[C@@H]2CSSC[C@@H]3NC(=O)[C@H](CC(=O)O)NC(=O)[C@H](CCC(=O)O)NC(=O)[C@@H](NC(=O)[C@@H](NC(=O)[C@H](C)N)[C@@H](C)O)CSSC[C@H](NC(=O)[C@H](CCCCN)NC(=O)[C@H](C)NC(=O)[C@H](CCCNC(=N)N)NC(=O)[C@H](C)NC(=O)[C@H](CC(N)=O)NC(=O)[C@H](CCC(N)=O)NC(=O)[C@H]([C@@H](C)O)NC(=O)[C@H](C)NC(=O)[C@H](CSSC[C@@H](C(=O)N[C@@H](CCC(=O)O)C(=O)N4CCC[C@H]4C(=O)N[C@@H](CCCCN)C(=O)O)NC1=O)NC(=O)[C@H](Cc1c[nH]cn1)NC(=O)[C@H](CCC(=O)O)NC(=O)[C@@H]1CCCN1C3=O)C(=O)N[C@@H](CC(=O)O)C(=O)N[C@@H](CC(N)=O)C(=O)N[C@@H](CC(=O)O)C(=O)N[C@@H](CCCCN)C(=O)N2 [BmP01]
affinity to rat Kv1.1 (rat Kv1.1): high affinity to rat Kv1.1
inhibition of rat Kv1.1 (rat Kv1.1): rat Kv1.1 and human Kv1.3 channel blocker; also recorded: inhibited both rat Kv1.1 and human Kv1.3
EC50 (mKv1.3 [1]): 0.269 ± 0.0127 µM
inhibition of mKv1.3 currents (mKv1.3 [2]; 300-ms depolarizing potential of 0 mV from holding potential of −80 mV, pH 7.3): inhibited the currents on mKv1.3
time constant of inhibition (τon) (mKv1.3 [2]; single-exponential fit): 5.04 ± 0.86 s
time constant of washing (τoff) (mKv1.3 [2]; single-exponential fit): 6.22 ± 0.15 s
normalized evoked currents, TRPV1 KO compared with WT DRG neurons [3]: significantly higher in WT than TRPV1 KO mice; also recorded: significantly lower in TRPV1 KO mice than in WT mice
activation of mTRPV1, concentration dependence (mTRPV1; 1 µM, 10 µM, 100 µM, 500 µM and 1 mM, HEK293T, pH 7.2): activate the mTRPV1 channel in a dose dependent manner; also recorded: increasing activity with higher concentration to activate TRPV1 currents
activation of TRPV1 (mTRPV1; 500 µM, HEK293T expressing mTRPV1): potently activated TRPV1; also recorded: completely activates the TRPV1 channel
evoked currents in TRPV1-expressed HEK293T cells, ramp method (mTRPV1; HEK293T with over-expressed TRPV1, ramp method): evoked currents on TRPV1-expressed HEK293T cells; also recorded: BmP01-induced currents were elicited from TRPV1 channels; also recorded: evoked the currents in HEK293T cells with over-expressed TRPV1 channels
inhibition of outward K^+ currents in rat hippocampal neurons (rat hippocampal neurons): slightly inhibited
inhibition of human Kv1.3 (human Kv1.3): rat Kv1.1 and human Kv1.3 channel blocker; also recorded: inhibited both rat Kv1.1 and human Kv1.3
pain behavior (duration of paw licking/biting) (TRPV1 KO mice): lost function to induce pain in TRPV1 KO mice; also recorded: not in TRPV1 knock-out (TRPV1 KO) mice; also recorded: did not induce pain
pain behavior (duration of paw licking/biting) (WT mice; 500 µM, vs saline): induced pain in WT mice; also recorded: showed acute pain behavior similar to capsaicin; also recorded: potently induces pain in vivo in WT mice
pain behavior (paw licking), dose-response (WT mice; different doses): induced acute pain in a dose dependent manner; also recorded: significant acute pain in wild type (WT) mice
effect on mKv1.1 currents (mKv1.1): no significant effect on mKv1.1; also recorded: did not inhibit the mKv1.1 currents; also recorded: no significant change was observed on the mKv1.1 currents

Entries after “also recorded” stand apart in the source; their conditions may differ.
